Assay results as given in PubChem BioAssay AID1159580 (chemical genetic matrix, 2015).
Only a part is listed here, and it is no random draw. Active and inactive are the calls of the source. Cut-off read from the data, not from the text of the source: active = normalized growth mostly below about 0.91 (no sharp cut-off); inconclusive = no clear call, values can overlap the other calls; inactive = mostly above about 0.92.

Assay: chemical genetic growth profiling, strain panel (AID 1159580);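 note: tested at 20 µM; growth read once vehicle control cultures reached saturation at 30 °C; 1 = growth at the plate median or of vehicle wells; lower values mean less growth of the strain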
Settings: S. cerevisiae deletion strains, growth OD
[1] = locus YAL013W, strain DEP1, active compounds read low
[2] = locus YAL040C, strain CLN3, active compounds read low
[3] = locus YCL061C, strain MRC1 (second series), active compounds read low
[4] = locus YDR150W, strain NUM1, active compounds read low
[5] = locus YDR363W, strain ESC2, active compounds read low
[6] = locus YER002W, strain NOP16, active compounds read low
[7] = locus YGR078C, strain PAC10, active compounds read low
[8] = locus YJR075W, strain HOC1, active compounds read low
[9] = locus YMR307W, strain GAS1, active compounds read low
[10] = locus YNL153C, strain GIM3, active compounds read low
[11] = locus YNL175C, strain NOP13, active compounds read low
[12] = locus YNL197C, strain WHI3, active compounds read low
[13] = locus YNL224C, strain SQS1, active compounds read low
[14] = locus YOR083W, strain WHI5 (second series), active compounds read low
[15] = locus YPL241C, strain CIN2, active compounds read low
[16] = locus YNL322C, strain KRE1, active compounds read low
[17] = locus YMR263W, strain SAP30, active compounds read low
[18] = locus YNL128W, strain TEP1, active compounds read low

Measured: normalized growth

CN(C(=O)Cc1ccccc1)[C@@H]1CC[C@]2(CCCO2)C[C@H]1N1CCCC1
inactive: [1] 0.972 | [2] 0.99 | [3] 0.991 | [4] 0.991 | [5] 0.975 | [6] 0.989 | [7] 0.994 | [8] 0.979 | [9] 0.986 | [10] 0.995 | [11] 1 | [12] 0.976 | [13] 1 | [14] 0.992 | locus YPL055C, strain LGE1, active compounds read low 0.984 | [15] 1

CN(C(=O)Cc1ccc(Cl)c(Cl)c1)[C@@H]1CC[C@]2(CCCO2)C[C@H]1N1CCCC1
inactive: [1] 0.991 | [3] 1 | [5] 1.02 | [6] 0.992 | [7] 1.01 | [9] 0.991 | [10] 1.01 | [11] 0.991 | [12] 1.02 | [13] 0.998 | [16] 1.01 | [14] 1 | [15] 1.01

CN(C(=O)Cc1ccc(Cl)c(Cl)c1)[C@@H]1CCCC[C@H]1N1CCCC1
inactive: [2] 1.06 | [3] 1.01 | [4] 0.999 | [5] 1.01 | [6] 1 | locus YGR229C, strain SMI1, active compounds read low 1.03 | [8] 1.01 | [17] 1.01 | [9] 1 | [11] 1 | [12] 1 | [13] 1.01 | [14] 1.01 | [15] 1

CN(CCCl)Cc1cc(Cl)c(NC2=NCCN2)c(Cl)c1
inactive: [2] 0.984 | [5] 0.995 | [6] 0.98 | [7] 1.01 | [9] 0.991 | [11] 0.999 | [12] 0.972 | [13] 1 | [14] 0.982

CN(C(=O)Cc1ccc(Cl)c(Cl)c1)[C@H]1CCCC[C@@H]1N1CCCC1
inactive: [1] 1.03 | [2] 0.974 | [3] 0.978 | [4] 0.994 | [5] 1.02 | [6] 0.966 | [18] 1.02 | [11] 0.986 | [12] 0.956 | [13] 0.998 | [16] 1.02 | [14] 1.01 | [15] 0.99

CN(C(=O)Cc1ccc(Cl)c(Cl)c1)C1CCCCC1N1CCCC1 (stereo unspecified)
inactive: [1] 1.01 | [2] 0.987 | [3] 0.997 | [4] 0.993 | [5] 0.988 | [6] 1.01 | [7] 1.01 | [17] 0.995 | [9] 1.01 | [18] 1.02 | [11] 1.01 | [12] 1.04 | [13] 1.04 | [14] 0.994 | [15] 0.999

CN(C(=O)Cc1ccc(Cl)c(Cl)c1)[C@@H]1CCCC[C@@H]1N1CCCC1
inactive: [2] 1.01 | [3] 1 | [4] 0.993 | [5] 1.03 | [6] 1.01 | [17] 1 | [11] 1.01 | [12] 1.01 | [13] 1.02 | [14] 1.01 | [15] 0.994
